Reference: ChEMBL document CHEMBL2406932, “Heteroaromatic and aniline derivatives of piperidines as potent ligands for vesicular acetylcholine transporter” (J Med Chem, 2013)

By UniProt entry, the sequences of proteins in these tests, tags left out.
UniProt Q60492, whole entry: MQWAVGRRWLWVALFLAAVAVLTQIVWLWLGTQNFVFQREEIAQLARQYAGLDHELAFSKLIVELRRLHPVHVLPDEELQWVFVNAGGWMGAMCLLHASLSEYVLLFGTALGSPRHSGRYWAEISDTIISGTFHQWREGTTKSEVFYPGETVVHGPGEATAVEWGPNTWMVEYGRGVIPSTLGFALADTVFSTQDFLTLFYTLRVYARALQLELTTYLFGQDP

Legend:
PC-12 [1] = experiment: Selectivity ratio, ratio of Ki for sigma 1 receptor in guinea pig brain homogenates to Ki for human VAChT expressed in rat PC12 cells; type: cell-based
In short: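 Sigma-1 binding used guinea pig brain membranes (~300 µg protein) with ~5 nM (+)-[3H]pentazocine, 90 min at room temperature; nonspecific binding was set with 10 µM haloperidol. […] The index is Ki(σ1)/Ki(VAcHT).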

PC-12 [2] = experiment: Selectivity ratio, ratio of Ki for sigma 2 receptor in rat liver homogenates to Ki for human VAChT expressed in rat PC12 cells; type: cell-based
[3] = target: Sigma non-opioid intracellular receptor 1 (Cavia porcellus, UniProt Q60492); experiment: Displacement of (+)- [3H]pentazocine from sigma 1 receptor expressed in guinea pig brain membrane homogenates by scintillation counting analysis; type: cell membranes
In short: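 Guinea pig brain membrane homogenate (~300 µg protein) with ~5 nM (+)-[3H]pentazocine, 90 min at room temperature in 50 mM Tris-HCl, 150 mM NaCl, pH 7.4. Nonspecific binding taken with 10 µM haloperidol. Stopped with ice-cold wash buffer, then rapid filtration and washes. IC50 from nonlinear regression, one-site fit.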

For `O=C(c1ccc(F)cc1)C1CCN([C@@H]2Cc3ccccc3C[C@H]2O)CC1` (relative stereo), the Ratio Ki (PC-12 [1]) was 71, the Ratio Ki (PC-12 [2]) was 93 and the Ki [3] was 0.191 µM.
